For test [1], the target named is Cannabinoid receptor 2 (Homo sapiens, UniProt P34972). Description: Displacement of [3H]CP55940 from human CB2 receptor expressed in HEK293 cells. Format: cell-based. A digest of the protocol: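 Membranes from HEK293 cells expressing human CB2; displacement of [3H]CP-55,940 in 96-well filter format, GF/B filtration with 0.5% BSA in wash buffer, scintillation counting. IC50 from displacement, Ki by nonlinear regression; three independent experiments in duplicate, mean reported.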
Background: In a radioligand displacement assay an active substance lowers the binding of a labelled ligand.

Protein sequences, listed by entry. Tags and fused reporters are not part of them. Lines headed by an entry give the natural chain unless they say otherwise; changes in a name come on top.
UniProt P34972, whole entry: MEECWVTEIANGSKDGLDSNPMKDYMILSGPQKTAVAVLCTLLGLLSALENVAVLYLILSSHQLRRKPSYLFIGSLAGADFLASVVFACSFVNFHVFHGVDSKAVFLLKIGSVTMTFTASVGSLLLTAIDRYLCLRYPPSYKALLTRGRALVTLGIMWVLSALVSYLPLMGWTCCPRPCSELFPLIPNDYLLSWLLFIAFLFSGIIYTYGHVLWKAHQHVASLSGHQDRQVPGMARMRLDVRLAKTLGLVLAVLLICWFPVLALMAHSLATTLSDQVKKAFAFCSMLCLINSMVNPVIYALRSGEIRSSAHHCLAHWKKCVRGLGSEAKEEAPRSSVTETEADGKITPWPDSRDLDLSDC
UniProt P47936: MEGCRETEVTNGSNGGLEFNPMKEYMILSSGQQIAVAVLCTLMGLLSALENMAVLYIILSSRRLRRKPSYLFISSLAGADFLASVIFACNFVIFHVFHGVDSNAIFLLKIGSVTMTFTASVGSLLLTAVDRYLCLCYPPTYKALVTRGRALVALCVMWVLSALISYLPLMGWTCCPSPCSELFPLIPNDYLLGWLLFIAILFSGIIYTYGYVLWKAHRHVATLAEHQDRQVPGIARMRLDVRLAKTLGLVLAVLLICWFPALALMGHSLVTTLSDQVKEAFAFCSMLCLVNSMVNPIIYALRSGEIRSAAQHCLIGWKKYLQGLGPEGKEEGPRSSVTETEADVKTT

The target of test [2] is Cannabinoid receptor 2 (Mus musculus, UniProt P47936). Description: Displacement of [3H]CP55940 from mouse spleen CB2 receptor. The test is classed as tissue-based. A digest of the protocol: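 CB2 sites from frozen mouse spleen membrane preparation; [3H]CP-55,940 displacement, filtered over GF/B with 0.5% BSA in wash buffer, scintillation counting. Ki by nonlinear regression from three independent experiments run in duplicate, mean of three values.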

Each structure is given as a SMILES string.

Broadly, the Ki is a measure of affinity in units of concentration, obtained from inhibition or displacement. The low end stands for a stronger hold on the target, the high end for a looser hold on the target. As to `CC1(C)Oc2cc(C3(CCCCCBr)CCC3)cc(O)c2[C@@H]2C[C@@H](O)CC[C@H]21`, the Ki at Cannabinoid receptor 2 [1] is 1.63 nM; on Cannabinoid receptor 2 [2] it was 1.67 nM.
The matching figures for `CC1(C)Oc2cc(C3(CCCCCBr)CCC3)cc(O)c2[C@@H]2C[C@H](O)CC[C@H]21`: 1.62 nM and 2.76 nM.

Values taken from ChEMBL document CHEMBL1255228 (J Med Chem, 2010).
